Source: ChEMBL document CHEMBL5331051, “Cationic, amphipathic small molecules based on a triazine-piperazine-triazine scaffold as a new class of antimicrobial agents” (Eur J Med Chem, 2022)
Values after ≈ are worked out from the molar mass of the structure shown.

Experiments:
Assay type in all cases: functional
Settings in all cases: time 18-24 hrs
[1] = system: Pseudomonas aeruginosa; test: Antibacterial activity against multidrug-resistant Pseudomonas aeruginosa CCARM 2095 strain assessed as bacterial growth inhibition measured at 18 to 24 hrs by microdilution assay
[2] = system: Pseudomonas aeruginosa; test: Antibacterial activity against Pseudomonas aeruginosa KCTC 1637 strain assessed as bacterial growth inhibition measured at 18 to 24 hrs by microdilution assay
[3] = system: Staphylococcus aureus; test: Antibacterial activity against methicillin-resistant Staphylococcus aureus CCARM 3090 strain assessed as bacterial growth inhibition measured at 18 to 24 hrs by microdilution assay
[4] = system: Staphylococcus aureus; test: Antibacterial activity against methicillin-resistant Staphylococcus aureus CCARM 3089 strain assessed as bacterial growth inhibition measured at 18 to 24 hrs by microdilution assay
[5] = system: Pseudomonas aeruginosa; test: Antibacterial activity against multidrug-resistant Pseudomonas aeruginosa CCARM 2109 strain assessed as bacterial growth inhibition measured at 18 to 24 hrs by microdilution assay
[6] = system: Staphylococcus aureus; test: Antibacterial activity against methicillin-resistant Staphylococcus aureus CCARM 3095 strain assessed as bacterial growth inhibition measured at 18 to 24 hrs by microdilution assay
[7] = system: Staphylococcus aureus; test: Antibacterial activity against Staphylococcus aureus KCTC 1621 strain assessed as bacterial growth inhibition measured at 18 to 24 hrs by microdilution assay
[8] = system: Staphylococcus epidermidis; test: Antibacterial activity against Staphylococcus epidermidis KCTC 1917 strain assessed as bacterial growth inhibition measured at 18 to 24 hrs by microdilution assay
[9] = system: Escherichia coli; test: Antibacterial activity against Escherichia coli KCTC 1682 strain assessed as bacterial growth inhibition measured at 18 to 24 hrs by microdilution assay

CC[C@H](C)[C@H](NC(=O)CN)C(=O)NCC(=O)N[C@@H](C)C(=O)N[C@H](C(=O)N[C@@H](CC(C)C)C(=O)N[C@@H](CCCCN)C(=O)N[C@H](C(=O)N[C@@H](CC(C)C)C(=O)N[C@H](C(=O)N[C@H](C(=O)NCC(=O)N[C@@H](CC(C)C)C(=O)N1CCC[C@H]1C(=O)N[C@@H](C)C(=O)N[C@@H](CC(C)C)C(=O)N[C@H](C(=O)N[C@@H](CO)C(=O)N[C@@H](Cc1c[nH]c2ccccc12)C(=O)N[C@H](C(=O)N[C@@H](CCCCN)C(=O)N[C@@H](CCCNC(=N)N)C(=O)N[C@@H](CCCCN)C(=O)N[C@@H](CCCNC(=N)N)C(=O)N[C@@H](CCC(N)=O)C(=O)N[C@@H](CCC(N)=O)C(N)=O)[C@@H](C)CC)[C@@H](C)CC)[C@@H](C)O)[C@@H](C)O)C(C)C)C(C)C [MELITTIN]
MIC [1]: 5.6 µM (≈ 15.9 µg/mL)
MIC [2]: 2.8 µM (≈ 7.97 µg/mL)
MIC [3]: 2.8 µM (≈ 7.97 µg/mL)
MIC [4]: 2.8 µM (≈ 7.97 µg/mL)
MIC [5]: 2.8 µM (≈ 7.97 µg/mL)
MIC [6]: 2.8 µM (≈ 7.97 µg/mL)
MIC [7]: 5.6 µM (≈ 15.9 µg/mL)
MIC [8]: 5.6 µM (≈ 15.9 µg/mL)
MIC [9]: 5.6 µM (≈ 15.9 µg/mL)
